Laboratory results reported in PMC8274062, “Promising Non-cytotoxic Monosubstituted Chalcones to Target Monoamine Oxidase-B” (ACS Medicinal Chemistry Letters, 2021).

Legend:
[1] = system: A2780 (human ovarian carcinoma cells); assay: Cell growth assay (trypan blue), A2780; type: cell-based; details: A2780, 72 h of incubation
[2] = system: HT-29 (human colorectal adenocarcinoma); assay: Cell growth assay (trypan blue), HT-29; type: cell-based; details: HT-29, 72 h of incubation

O=C(/C=C/c1ccccc1)c1ccc(C(F)(F)F)cc1 [Compound 14]
GI50 [1]: > 20 µM | GI50 [2]: > 20 µM
